Laboratory results as given in US12233073B2, “Skin care formulations and skin cancer treatment” (Regents of the University of Minnesota, priority 2017, dated 2025).

Tests used:
Type in all cases: cell-based
elastin = test: Induction of elastin
Protocol: (§1) Higher elastin and collagen activity is indicative of anti-wrinkling or anti-aging effects. Activation of the antioxidant response element (ARE) pathway was also evaluated. The NF-E2-related factor (Nrf2) is a critical transcription factor in oxidative stress signaling. Nrf2 binds to the ARE and serves as a master regulator in cellular defense pathways. The ARE pathway mediates the transcriptional induction of a battery of genes that help to protect the cells against oxidative damage. Activation of the ARE promoter leads to more endogenous antioxidants and cell detoxification.

collagen 1A = test: Induction of collagen 1A
Protocol: as §1

[1] = tested on: antioxidant response element (ARE) pathway; test: Activation of the antioxidant response element (ARE) pathway
Protocol: as §1

Question: With `O=c1c(O)c(-c2ccc(O)c(O)c2)oc2cc(O)c(O)c(O)c12` [HI-9, quercetagetin] as the compound, how does the fold induction at 10 µg/mL (elastin; final dose 10 μg/ml) read?
Answer: < 1.3

Question: What about the fold induction at 50 µg/mL (elastin; final dose 50 μg/ml) of the same compound?
Answer: 2

Question: And the fold induction at 100 µg/mL (elastin; final dose 100 μg/ml)?
Answer: 4

Question: And the fold induction at 10 µg/mL (collagen 1A; final dose 10 μg/ml)?
Answer: 1.6

Question: And the fold induction at 50 µg/mL (collagen 1A; final dose 50 μg/ml)?
Answer: < 1.3

Question: And the fold induction at 100 µg/mL (collagen 1A; final dose 100 μg/ml)?
Answer: < 1.3

Question: And the fold induction at 10 µg/mL ([1]; final dose 10 μg/ml)?
Answer: < 1.3

Question: What about the fold induction at 50 µg/mL ([1]; final dose 50 μg/ml) of the same compound?
Answer: < 1.3

Question: And the fold induction at 100 µg/mL ([1]; final dose 100 μg/ml)?
Answer: < 1.3
